The Ki is a measure of affinity in units of concentration, obtained from inhibition or displacement.

By UniProt entry, the sequences of proteins in these tests, tags left out. Residues count along the entry.
UniProt P27958, 1027-1657: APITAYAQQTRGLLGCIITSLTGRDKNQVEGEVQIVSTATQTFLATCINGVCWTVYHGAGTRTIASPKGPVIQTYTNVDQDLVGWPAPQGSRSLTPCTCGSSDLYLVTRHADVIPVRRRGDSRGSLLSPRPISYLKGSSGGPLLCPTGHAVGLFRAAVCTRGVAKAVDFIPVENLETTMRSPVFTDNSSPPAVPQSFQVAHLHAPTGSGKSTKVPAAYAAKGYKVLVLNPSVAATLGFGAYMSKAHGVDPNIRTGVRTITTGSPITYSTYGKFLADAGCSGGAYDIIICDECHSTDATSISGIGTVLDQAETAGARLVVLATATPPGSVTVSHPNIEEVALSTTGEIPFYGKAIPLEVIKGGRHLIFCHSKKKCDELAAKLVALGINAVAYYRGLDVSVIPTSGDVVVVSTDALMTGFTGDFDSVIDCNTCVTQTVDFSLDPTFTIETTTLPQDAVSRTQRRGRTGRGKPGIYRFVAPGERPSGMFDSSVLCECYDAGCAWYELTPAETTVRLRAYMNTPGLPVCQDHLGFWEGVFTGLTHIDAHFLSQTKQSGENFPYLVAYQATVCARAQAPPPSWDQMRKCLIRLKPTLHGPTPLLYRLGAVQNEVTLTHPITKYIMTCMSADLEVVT
UniProt P27958, 1658-1711: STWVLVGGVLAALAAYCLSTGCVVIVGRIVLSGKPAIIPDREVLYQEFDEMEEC

Where only a bound is given, the exact number is not on record here.

The target of one assay is Recombinant heterodimeric HCV NS3/NS4A protease (strain 1a) (Hepatitis C virus genotype 1a, UniProt P27958). Nature of the assay: Spectrophotometric assay for HCV protease inhibitory activity. Format: biochemical. As to conditions: Table 1, range.
In the case of `C=CCNC(=O)C(=O)C(CCCC)NC(=O)[C@@H]1[C@@H]2[C@H](CN1C(=O)[C@@H](NC(=O)N[C@H](CN(C)S(=O)(=O)N(C)C)C(C)C)C(C)(C)C)C2(C)C` (stereo partly drawn) [Compound 10065], the Ki was no more than 75 nM.
As to `C#CCCC(NC(=O)[C@@H]1[C@@H]2[C@H](CN1C(=O)[C@@H](NC(=O)N[C@H](CN(C)S(=O)(=O)N1CCCCC1)C(C)(C)C)C(C)(C)C)C2(C)C)C(=O)C(N)=O` (stereo partly drawn) [Compound 10045], the Ki is no more than 75 nM.
As for `CNC(=O)C(=O)[C@@H](CC1CC1)NC(=O)[C@@H]1[C@@H]2[C@H](CN1C(=O)[C@@H](NC(=O)N[C@H](CN(C)S(=O)(=O)N(C)C)C(C)(C)C)C(C)(C)C)C2(C)C` [Compound 10039], the Ki is no more than 75 nM.
On the same count and under the same terms, under `C=CCNC(=O)C(=O)C(CC1CC1)NC(=O)[C@@H]1[C@@H]2[C@H](CN1C(=O)[C@@H](NC(=O)N[C@H](CN(C)S(=O)(=O)N(C)C(=O)OCc1ccccc1)C(C)(C)C)C(C)(C)C)C2(C)C` (stereo partly drawn) [Compound 10063] stands no more than 75 nM; under `C=CCNC(=O)C(=O)C(CCCC)NC(=O)[C@@H]1[C@@H]2[C@H](CN1C(=O)[C@@H](NC(=O)N[C@H](CNS(=O)(=O)N(C)C)C(C)C)C(C)(C)C)C2(C)C` (stereo partly drawn) [Compound 10006], 75 to 250 nM.
For `C=CCNC(=O)C(=O)C(CCCC)NC(=O)[C@@H]1[C@@H]2[C@H](CN1C(=O)[C@@H](NC(=O)N[C@H](CNS(=O)(=O)N(C)C)C(C)C)C(C)(C)C)C2(C)C` (stereo partly drawn) [Compound 10017], the Ki was no more than 75 nM.
Same read-out and setting: then `CN(C[C@@H](NC(=O)N[C@H](C(=O)N1C[C@H]2[C@@H]([C@H]1C(=O)NC(CC1CCC1)C(=O)C(N)=O)C2(C)C)C(C)(C)C)C(C)(C)C)S(=O)(=O)N1CCCCC1` (stereo partly drawn) [Compound 10061], with no more than 75 nM; and `C#CCCC(NC(=O)[C@@H]1[C@@H]2[C@H](CN1C(=O)[C@@H](NC(=O)N[C@H](CN(C)S(=O)(=O)N(C)C)C(C)(C)C)C1CCCCC1)C2(C)C)C(=O)C(=O)NCC` (stereo partly drawn) [Compound 10077], with no more than 75 nM.
Still for that read-out and setting: then `C=CCNC(=O)C(=O)C(CCCC)NC(=O)[C@@H]1[C@@H]2[C@H](CN1C(=O)[C@@H](NC(=O)N[C@H](CNS(=O)(=O)N(C)C)C(C)C)C(C)(C)C)C2(C)C` (stereo partly drawn) [Compound 10009], with 75 to 250 nM.
`CN(C[C@@H](NC(=O)N[C@H](C(=O)N1C[C@H]2[C@@H]([C@H]1C(=O)NC(CC1CCC1)C(=O)C(N)=O)C2(C)C)C1CCCCC1)C(C)(C)C)S(=O)(=O)N1CCCCC1` (stereo partly drawn) [Compound 10053]: the Ki was no more than 75 nM.

The same assay, now with this note: Table 2, range.
Turning to `C=CCNC(=O)C(=O)C(CCCC)NC(=O)[C@@H]1[C@@H]2[C@H](CN1C(=O)[C@@H](NC(=O)N[C@H](CN(C)S(=O)(=O)c1ccc(C(C)=O)cc1)C(C)(C)C)C(C)(C)C)C2(C)C` (stereo partly drawn) [Compound 11321], the Ki was no more than 75 nM.
Same read-out and setting: under `C=CCNC(=O)C(=O)C(CCCC)NC(=O)[C@@H]1[C@@H]2[C@H](CN1C(=O)[C@@H](NC(=O)N[C@H](CN(C)S(=O)(=O)c1ccccn1)C(C)(C)C)C1Cc3ccccc3C1)C2(C)C` (stereo partly drawn) [Compound 11375] stands no more than 75 nM; under `C=CCNC(=O)C(=O)C(CCC)NC(=O)[C@@H]1[C@@H]2[C@H](CN1C(=O)[C@@H](NC(=O)N[C@H](CN(C)S(C)(=O)=O)C(C)(C)C)C(C)(C)C)C2(C)C` (stereo partly drawn) [Compound 11088], no more than 75 nM.
On the same count and under the same terms, then `C#CCCC(NC(=O)[C@@H]1[C@@H]2[C@H](CN1C(=O)[C@@H](NC(=O)N[C@H](CN(C)S(=O)(=O)c1cccs1)C(C)(C)C)C(C)(C)C)C2(C)C)C(=O)C(=O)NCCC` (stereo partly drawn) [Compound 11144], with no more than 75 nM.
The same measure, in the same setting: then `C#CCCC(NC(=O)[C@@H]1[C@@H]2[C@H](CN1C(=O)[C@@H](NC(=O)N[C@H](CN(C(C)C)S(=O)(=O)c1cccs1)C(C)(C)C)C(C)(C)C)C2(C)C)C(=O)C(=O)NCC=C` (stereo partly drawn) [Compound 11390], with no more than 75 nM; and `C=CCNC(=O)C(=O)C(CC=C)NC(=O)[C@@H]1[C@@H]2[C@H](CN1C(=O)[C@@H](NC(=O)NC1(CN(C)S(C)(=O)=O)CCCCC1)C(C)(C)C)C2(C)C` (stereo partly drawn) [Compound 11069], with no more than 75 nM.
Regarding `CC(C)N(C[C@@H](NC(=O)N[C@H](C(=O)N1C[C@H]2[C@@H]([C@H]1C(=O)NC(CC1CCC1)C(=O)C(N)=O)C2(C)C)C(C)(C)C)C(C)(C)C)S(=O)(=O)c1cccs1` (stereo partly drawn) [Compound 11229], the Ki was no more than 75 nM.
For the compound `C#CCCC(NC(=O)[C@@H]1[C@@H]2[C@H](CN1C(=O)[C@@H](NC(=O)N[C@H](CN(C)S(C)(=O)=O)C(C)(C)C)C1(C)CCCCC1)C2(C)C)C(=O)C(=O)NCC=C` (stereo partly drawn) [Compound 11149], the Ki is no more than 75 nM.
`C=CCNC(=O)C(=O)C(CCC)NC(=O)[C@@H]1[C@@H]2[C@H](CN1C(=O)[C@@H](NC(=O)N[C@H](CN(C)S(=O)(=O)c1sc(C)nc1C)C(C)(C)C)C(C)(C)C)C2(C)C` (stereo partly drawn) [Compound 11115]: the Ki is no more than 75 nM.
On to `C#CCNC(=O)C(=O)C(CCCC)NC(=O)[C@@H]1[C@@H]2[C@H](CN1C(=O)[C@@H](NC(=O)N[C@H](CN(C)S(=O)(=O)CC)C(C)(C)C)C1Cc3ccccc3C1)C2(C)C` (stereo partly drawn) [Compound 11335], for which the Ki is no more than 75 nM.
The same measure, in the same setting: then `CN(CC(C)(C)NC(=O)N[C@H](C(=O)N1C[C@H]2[C@@H]([C@H]1C(=O)NC(CC1CC1)C(=O)C(N)=O)C2(C)C)C(C)(C)C)S(C)(=O)=O` (stereo partly drawn) [Compound 11017], with 75 to 250 nM.
Still for that read-out and setting: then `C=CCNC(=O)C(=O)C(CCCC)NC(=O)[C@@H]1[C@@H]2[C@H](CN1C(=O)[C@@H](NC(=O)NC1(CN(C)S(C)(=O)=O)CCCCC1)C1CCCCC1)C2(C)C` (stereo partly drawn) [Compound 11066], with no more than 75 nM; and `C=CCNC(=O)C(=O)C(CCCC)NC(=O)[C@@H]1[C@@H]2[C@H](CN1C(=O)[C@@H](NC(=O)N[C@H](CN(C)S(C)(=O)=O)C(C)(C)C)C1CCCCC1)C2(C)C` (stereo partly drawn) [Compound 11078], with no more than 75 nM.
As for `CCCC(NC(=O)[C@@H]1[C@@H]2[C@H](CN1C(=O)[C@@H](NC(=O)N[C@H](CN(C)S(C)(=O)=O)C(C)(C)C)C1(C)CCCCC1)C2(C)C)C(=O)C(=O)NC` (stereo partly drawn) [Compound 11201], the Ki was no more than 75 nM.
Turning to `C=CCNC(=O)C(=O)C(CCC)NC(=O)[C@@H]1[C@@H]2[C@H](CN1C(=O)[C@@H](NC(=O)N[C@H](CN(C)S(=O)(=O)c1ccccn1)C(C)(C)C)C1(C)CCCCC1)C2(C)C` (stereo partly drawn) [Compound 11365], the inhibition constant Ki is no more than 75 nM.
As to `C#CCCC(NC(=O)[C@@H]1[C@@H]2[C@H](CN1C(=O)[C@@H](NC(=O)N[C@H](CN(C)S(=O)(=O)c1cccs1)C(C)(C)C)C1Cc3ccccc3C1)C2(C)C)C(=O)C(=O)NCC=C` (stereo partly drawn) [Compound 11178], the Ki was no more than 75 nM.
On to `C=CCNC(=O)C(=O)C(CC1CC1)NC(=O)[C@@H]1[C@@H]2[C@H](CN1C(=O)[C@@H](NC(=O)N[C@H](CN(CC1CC1)S(=O)(=O)c1cccs1)C(C)(C)C)C(C)(C)C)C2(C)C` (stereo partly drawn) [Compound 11246], for which the Ki was no more than 75 nM.
On the same count and under the same terms, under `CN(C[C@H](CC(C)(C)C)NC(=O)N[C@H](C(=O)N1C[C@H]2[C@@H]([C@H]1C(=O)NC(CC1CCC1)C(=O)C(N)=O)C2(C)C)C(C)(C)C)S(=O)(=O)C1CC1` (stereo partly drawn) [Compound 11130] stands no more than 75 nM.
Take `C#CCCC(NC(=O)[C@@H]1[C@@H]2[C@H](CN1C(=O)[C@@H](NC(=O)N[C@H](CN(C)S(C)(=O)=O)C(C)(C)C)C1(C)CCCCC1)C2(C)C)C(=O)C(=O)NCCC` (stereo partly drawn) [Compound 11198]: the inhibition constant (Ki) is no more than 75 nM.
Consider `C=CCNC(=O)C(=O)C(CC1CC1)NC(=O)[C@@H]1[C@@H]2[C@H](CN1C(=O)[C@@H](NC(=O)N[C@H](CN(C)S(=O)(=O)C1CC1)C(C)(C)C)C1CCCCC1)C2(C)C` (stereo partly drawn) [Compound 11054], for which the Ki is no more than 75 nM.
In the case of `CC(C)(C)[C@H](NC(=O)NC1CCCN(S(=O)(=O)C2CC2)C1)C(=O)N1C[C@H]2[C@@H]([C@H]1C(=O)NC(CC1CCC1)C(=O)C(N)=O)C2(C)C` (stereo partly drawn) [Compound 11022], the Ki was 75 to 250 nM.

Still in this assay, the particulars now being: Table 3, range.
Regarding `CC(C)(C)[C@H](NC(=O)NC1(CNS(=O)(=O)c2ccccc2)CCCCC1)C(=O)N1C[C@H]2[C@@H]([C@H]1C(=O)NC(CC1CC1)C(=O)C(N)=O)C2(C)C` (stereo partly drawn) [Compound 12008], the Ki is no more than 75 nM.

The same assay, now with this note: Table 4, range.
For the compound `CNC(=O)C(=O)C(CCC(F)(F)F)NC(=O)[C@@H]1[C@@H]2[C@H](CN1C(=O)[C@@H](NC(=O)N[C@H](CN(C)C(C)=O)C(C)(C)C)C(C)(C)C)C2(C)C` (stereo partly drawn) [Compound 13019], the Ki is no more than 75 nM.
The same measure, in the same setting: then `C=CCNC(=O)C(=O)C(CCC)NC(=O)[C@@H]1[C@@H]2[C@H](CN1C(=O)[C@@H](NC(=O)N[C@H](CN(C)C(=O)C(F)(F)F)C(C)(C)C)C(C)(C)C)C2(C)C` (stereo partly drawn) [Compound 13024], with no more than 75 nM.
Same read-out and setting: under `C=CCNC(=O)C(=O)C(CCC(F)(F)F)NC(=O)[C@@H]1[C@@H]2[C@H](CN1C(=O)[C@@H](NC(=O)N[C@H](CN(C)C(=O)C1CC1)C(C)(C)C)C(C)(C)C)C2(C)C` (stereo partly drawn) [Compound 13015] stands 75 to 250 nM.

The assay is the same for the next values; noted with them: Table 5, range.
Regarding `CC(C)[C@H](CNC(=O)OCc1ccccc1)NC(=O)N[C@H](C(=O)N1C[C@H]2[C@@H]([C@H]1C(=O)NC(CC1CCC1)C(=O)C(N)=O)C2(C)C)C(C)(C)C` (stereo partly drawn) [Compound 14003], the Ki was in the range of 75 to 250 nM.
On to `C=CCNC(=O)C(=O)C(CC1CC1)NC(=O)[C@@H]1[C@@H]2[C@H](CN1C(=O)[C@@H](NC(=O)N[C@H](CNC(=O)OC(C)C)C(C)C)C(C)(C)C)C2(C)C` (stereo partly drawn) [Compound 14024], for which the Ki is 75 to 250 nM.
The same measure, in the same setting: then `CC(C)(C)OC(=O)NCC1(NC(=O)N[C@H](C(=O)N2C[C@H]3[C@@H]([C@H]2C(=O)NC(CC2CC2)C(=O)C(N)=O)C3(C)C)C(C)(C)C)CCCCC1` (stereo partly drawn) [Compound 14005], with no more than 75 nM.

The same assay, now with this note: Table 5A, range.
As to `C=CCNC(=O)C(=O)C(CC1CC1)NC(=O)[C@@H]1[C@@H]2[C@H](CN1C(=O)[C@@H](NC(=O)N[C@H](CN(C)S(=O)(=O)c1ccccn1)C(C)(C)C)C1Cc3ccccc3C1)C2(C)C` (stereo partly drawn) [Compound 11397], the Ki was in the range of 75 to 250 nM.
As for `C=CCNC(=O)C(=O)C(CCC)NC(=O)[C@@H]1[C@@H]2[C@H](CN1C(=O)[C@@H](NC(=O)N[C@H](CN(C)S(=O)(=O)c1cccnc1)C(C)(C)C)C1(C)CCCCC1)C2(C)C` (stereo partly drawn) [Compound 11410], the inhibition constant Ki is no more than 75 nM.
On to `CCN(C[C@@H](NC(=O)N[C@H](C(=O)N1C[C@H]2[C@@H]([C@H]1C(=O)NC(CCC(F)(F)F)C(=O)C(=O)NC1CC1)C2(C)C)C1Cc2ccccc2C1)C(C)(C)C)S(=O)(=O)CC` (stereo partly drawn) [Compound 11414], for which the Ki was no more than 75 nM.

Still in this assay, the particulars now being: Table 6.
Consider `C=CCNC(=O)C(=O)C(CCC)NC(=O)[C@@H]1[C@@H]2[C@H](CN1C(=O)[C@@H](NC(=O)N[C@H](CN(C)S(=O)(=O)c1cccnc1)C(C)(C)C)C1(C)CCCCC1)C2(C)C` (stereo partly drawn) [Compound 11410], for which the Ki amounted to 9 nM.

For the origin of these results see US7759499B2, “Compounds as inhibitors of hepatitis C virus NS3 serine protease” (Schering Corporation, priority 2004, dated 2010).
